Earlier results in patent US11053300B2, “Membrane span-kinase fusion protein and the uses thereof” (VIB VZW, priority 2012, dated 2021).

Biological target: AGTR1 (Homo sapiens, UniProt P30556)
Conditions: reported, Kakuta et al., 2005; cited from earlier work

Structure (SMILES): CCCc1nc2c(C)cc(-c3nc4ccccc4n3C)cc2n1Cc1ccc(-c2ccccc2C(=O)O)cc1 [telmisartan]
- binding affinity towards AGTR1, telmisartan versus losartan: higher binding affinity
